# Measurements as given in patent publication US8450522B2, “Conformationally constrained carboxylic acid derivatives useful for treating metabolic disorders” (Amgen Inc., priority 2008, dated 2013).
# Chains of the proteins cited; added tags and fusions are not shown.
# UniProt O14842, whole entry: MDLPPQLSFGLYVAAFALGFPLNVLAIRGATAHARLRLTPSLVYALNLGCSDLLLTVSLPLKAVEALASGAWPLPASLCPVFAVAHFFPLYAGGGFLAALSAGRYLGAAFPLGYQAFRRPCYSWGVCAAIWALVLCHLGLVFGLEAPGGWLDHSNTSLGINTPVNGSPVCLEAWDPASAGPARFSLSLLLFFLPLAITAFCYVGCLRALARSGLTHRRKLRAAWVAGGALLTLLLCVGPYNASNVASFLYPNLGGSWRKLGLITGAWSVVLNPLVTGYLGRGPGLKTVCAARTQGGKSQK
# pEC50: −log10 of the molar value.
# Target: GPR40 (Homo sapiens, UniProt O14842)
# Assay: Cell-based aequorin assay (CHO cells stably transfected with GPR40 and aequorin)
# Settings: read-out: Aequorin Ec50; activation of human GPR40, CHO cells, 0.01% HSA
smiles,measurement,value
COc1ccc(F)c(-c2ccc(COc3ccc4c(c3)C(C(C)C(=O)O)CC4)cc2C(C)(C)C)c1 (stereo not shown),pEC50,6.00 to 7.00
